In patent publication USRE35517E, “Method, compositions, and compounds for modulating brain excitability” (priority 1992, dated 1997):

System: GABA/benzodiazepine receptor-chloride ionopore complex (GBR complex)
Assay: Dissociation kinetics of [35S]TBPS in rat cerebral cortical membranes
Assay type: binding
Conditions: [35S]TBPS dissociation, rat cortex; Na pentobarbital, 300 nM alphaxalone, 20 nM a-OH-DHP

Compound: CC(=O)[C@H]1CC[C@H]2[C@@H]3CC[C@H]4C[C@H](O)CC[C@]4(C)[C@H]3CC[C@]12C [3α-OH-DHP, 3α-hydroxy-5α-pregnan-20-one]
- k-1, R (rapidly dissociating component): 0.122 ± 0.030 min⁻¹
